# Measurements as given in PubChem BioAssay AID743258 (The Scripps Research Institute Molecular Screening Center, 2014).
# Amino acid sequences for entries named in this document (tags omitted).
# UniProt P19174, whole entry: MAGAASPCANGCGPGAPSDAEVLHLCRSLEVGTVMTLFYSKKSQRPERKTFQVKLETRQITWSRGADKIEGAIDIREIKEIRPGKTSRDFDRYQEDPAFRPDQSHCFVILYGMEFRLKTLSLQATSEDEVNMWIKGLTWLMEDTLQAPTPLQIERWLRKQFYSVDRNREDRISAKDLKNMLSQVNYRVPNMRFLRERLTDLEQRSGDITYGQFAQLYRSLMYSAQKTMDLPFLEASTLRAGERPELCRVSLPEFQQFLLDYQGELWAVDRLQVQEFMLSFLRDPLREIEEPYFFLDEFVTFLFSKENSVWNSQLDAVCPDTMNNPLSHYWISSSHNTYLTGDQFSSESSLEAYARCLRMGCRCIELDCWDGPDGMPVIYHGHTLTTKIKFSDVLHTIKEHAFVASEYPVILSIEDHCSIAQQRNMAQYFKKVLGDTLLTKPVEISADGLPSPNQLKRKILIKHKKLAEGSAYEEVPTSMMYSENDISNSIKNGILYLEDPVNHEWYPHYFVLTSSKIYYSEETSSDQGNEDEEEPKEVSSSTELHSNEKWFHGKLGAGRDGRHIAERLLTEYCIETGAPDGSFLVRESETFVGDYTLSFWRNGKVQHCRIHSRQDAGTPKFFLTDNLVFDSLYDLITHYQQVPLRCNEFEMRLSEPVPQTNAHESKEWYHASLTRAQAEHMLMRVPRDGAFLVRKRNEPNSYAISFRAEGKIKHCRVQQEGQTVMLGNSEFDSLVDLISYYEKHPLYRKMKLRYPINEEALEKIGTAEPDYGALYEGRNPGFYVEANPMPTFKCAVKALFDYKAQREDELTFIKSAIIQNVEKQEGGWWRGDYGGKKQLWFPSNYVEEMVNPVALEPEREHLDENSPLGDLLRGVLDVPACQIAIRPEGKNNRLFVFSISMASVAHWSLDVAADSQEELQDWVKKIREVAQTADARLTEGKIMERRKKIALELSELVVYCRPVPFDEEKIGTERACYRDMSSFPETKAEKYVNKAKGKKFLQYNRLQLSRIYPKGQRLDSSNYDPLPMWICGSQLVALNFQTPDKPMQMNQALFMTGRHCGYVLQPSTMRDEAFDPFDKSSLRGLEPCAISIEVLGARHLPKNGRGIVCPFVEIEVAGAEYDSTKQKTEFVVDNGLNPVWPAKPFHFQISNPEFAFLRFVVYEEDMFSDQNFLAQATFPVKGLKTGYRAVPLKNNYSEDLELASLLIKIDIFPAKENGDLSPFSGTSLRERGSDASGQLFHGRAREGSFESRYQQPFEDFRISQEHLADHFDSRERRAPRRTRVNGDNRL
# Only a part is listed here, and it is no random draw. Some results for these compounds are left out of this collection, so the calls shown say nothing about other tests. The source made the active and inactive calls. Rule as the data show it: active = inhibition above about 9.5%; inactive = the rest.
# Biological target: 1-phosphatidylinositol 4,5-bisphosphate phosphodiesterase gamma-1 (Homo sapiens) (UniProt P19174)
# Assay: PLC-gamma1 enzyme inhibitors, counter-screen for PLC-beta3 inhibitor project, biochemical, fluorescence (AID 743258)
# Details: purified PLC-gamma1, fluorogenic substrate, at 12.3 µM, hits give high values
row,Structure (SMILES),inhibition
1,CCN1CCCC(OC(=O)C2(O)c3ccccc3C=Cc3ccccc32)C1 (stereo unspecified),inactive: -0.43%
